Measurements: US20210396761A1 (AICURIS, published 2021)

Biological target: T1, His-tagged pUL50 (HCMV groove protein, soluble recombinant) (human cytomegalovirus (HCMV), UniProt P16791 1-175)
T1 construct: also called His-tagged groove protein
T1 sequence: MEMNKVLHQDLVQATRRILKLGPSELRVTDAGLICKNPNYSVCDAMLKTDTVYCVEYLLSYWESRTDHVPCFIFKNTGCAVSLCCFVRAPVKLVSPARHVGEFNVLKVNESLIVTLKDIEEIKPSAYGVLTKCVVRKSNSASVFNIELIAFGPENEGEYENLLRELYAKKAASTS
Assay: competitive ELISA, inhibition of His-tagged pUL50 binding to coated pUL53

B1: BFLF2 (EBV hook protein, soluble recombinant) (other)
chain: DRSHFSLRDFFRGISANFELGKDFLREMNTPIHVSEAVFLPLSLCTLSPGRCLRLSPFGHSLTLGSHCEICINRSQVHVPQEFSSTQLSFFNNVHKIIPNKTFYVSLLSSSPSAVKAGLSQPSLLYAYLVTGHFCGTICPIFSTNGKGRLIMHLLLQGTSLHIPETCLKLLCENIGPTYELAVDLVGDAFCIKVSPRDTVYEKAVNVDEDAIYEAIKDLECGDELRLQIINYTQLILENKQ
B1 was tested. Which IC50 did it give?
Its IC50 is 198 nM.
